The numbers were not newly measured in patent US10213418B2, “Therapeutic uses of berberine formulations” (TWi Biotechnology, Inc., priority 2013, dated 2019), which cites them from elsewhere.

Structures are written as SMILES.

The conditions of this data set: patients on therapy; cited from earlier work.

`CC(=O)Nc1cccc(-n2c(=O)n(C3CC3)c(=O)c3c(Nc4ccc(I)cc4F)n(C)c(=O)c(C)c32)c1` [trametinib]: the papulopustular rash reported is 80 % of patients.
